Laboratory results published in patent US9689040B2, “Selective inhibitors of tumor-initiating cells” (Children's Medical Center Corporation, priority 2011, dated 2017).

Sequences of proteins named here, by UniProt entry; tags and fusion partners are left off. Residues count along the entry.
UniProt P28074, 60-263: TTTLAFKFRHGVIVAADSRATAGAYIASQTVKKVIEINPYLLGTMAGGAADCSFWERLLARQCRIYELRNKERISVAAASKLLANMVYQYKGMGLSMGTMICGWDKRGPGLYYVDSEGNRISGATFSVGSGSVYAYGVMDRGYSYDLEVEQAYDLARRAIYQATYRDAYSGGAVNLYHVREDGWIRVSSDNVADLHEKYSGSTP

Legend:
[1] = target: proteasome (Homo sapiens, UniProt P28074); test: Proteasome activity in BPLER and HMLER cells (ProteaGlo assay); details: 6 hr after treatment
[2] = test system: 4T1-E tumors; details: 4 doses at 1.0 mg/kg i.p. q3d, after 10 days
[3] = Body weight of bortezomib-treated mice; format: in vivo, mouse; details: 0.5 or 1.0 mg/kg i.p. q3d, 10-16 days of therapy
Protocol: For all the experiments described herein, bortezomib was given every three days (q3d), reflecting clinical protocols used in human patients, at doses of 0.5 mg/kg or 1.0 mg/kg intraperitoneally (i.p.), which were previously reported to be well-tolerated in mice.

SMILES: CC(C)C[C@H](NC(=O)[C@H](Cc1ccccc1)NC(=O)c1cnccn1)B(O)O [bortezomib]
- proteasomal activity in BPLER and HMLER [1]: decreased proteasomal activity similarly in both cell lines
- reduction of median tumor weight [2]: 56%
- weight loss [3]: did not observe any significant weight loss
